From patent publication US20240166755A1, “CHIMERIC ANTIGEN RECEPTORS TARGETING CANCER” (University of Southern California, priority 2016, published 2024)

B1: CD8SP-12E10-(vL-vH)-Myc-CD28z-T2A-PAC(031615-S03): CAR construct targeting MPL, 12E10 scFv, CD28 costimulatory domain (protein)
chain: MALPVTALLLPLALLLHAARPDQVQLQQSGPGLVKPSETLSLTCTVSGDSISSYYWSWIRQPPGKGLEWIGYIYYSGSTNYNPSLKSRVTISVDTSKSQFSLKLSSVTAADTAVYYCARGRYFDVWGRGTMVTSSGGGGSGGGGSGGGGSSSYVLTQPPSVSGSPGQSITISCTGTSSDVGGYNYVSWYQQHPGKAPKLMIYEGSKRPSGVSNRFSGSKSGNTASLTISGLQAEDEADYYCSSYTTRSTRVFGGGTKLTVLGAAATREQKLISEEDLKIEVMYPPPYLDNEKSNGTIIHVKGKHLCPSPLFPGPSKPFWVLVVVGGVLACYSLLVTVAFIIFWVRSKRSRLLHSDYMNMTPRRPGPTRKHYQPYAPPRDFAAYRSRVKFSRSADAPAYQQGQNQLYNELNLGRREEYDVLDKRRGRDPEMGGKPRRKNPQEGLYNELQKDKMAEAYSEIGMKGERRRGKGHDGLYQGLSTATKDTYDALHMQALPPRSSGSGEGRGSLLTCGDVEENPGPHMTEYKPTVRLATRDDVPRAVRTLAAAFADYPATRHTVDPDRHIERVTELQELFLTRVGLDIGKVWVADDGAAVAVWTTPESVEAGAVFAEIGPRMAELSGSRLAAQQQMEGLLAPHRPKEPAWFLATVGVSPDHQGKGLGSAVVLPGVEAAERAGVPAFLETSAPRNLPFYERLGFTVTADVEVPEGPRTWCMTRKPGA
modifications: listed as DNA
notes: CAR construct targeting MPL, 12E10 scFv, CD28 costimulatory domain
B2: CD8SP-AB317-(vL-vH)-Myc-CD28z-T2A-PAC(031615-T04): CAR construct targeting MPL, AB317 scFv, CD28 costimulatory domain (protein)
chain: MALPVTALLLPLALLLHAARPDIVLTQSPASLAVSLGQSVTISCRASESVEYYGTSLMQWYQQKPGQPPKLLIYGASNVESGVPARFSGSGSGTDFSLNIHPVEEDDIAMYFCQQSRKVPWTFGGGTKLEIKGGGGSGGGGSGGGGSEVKLVESGGGLVKPGGSRKLSCAASGFTFSSYTMSWVRQTPAKRLEWVATISSGSSTIYYADTVKGRFTISRDNAKNTLFLQMTSLRSEDTAMYYCARRWFLDCWGQGTTLTVSSTREQKLISEEDLKIEVMYPPPYLDNEKSNGTIIHVKGKHLCPSPLFPGPSKPFWVLVVVGGVLACYSLLVTVAFIIFWVRSKRSRLLHSDYMNMTPRRPGPTRKHYQPYAPPRDFAAYRSRVKFSRSADAPAYQQGQNQLYNELNLGRREEYDVLDKRRGRDPEMGGKPRRKNPQEGLYNELQKDKMAEAYSEIGMKGERRRGKGHDGLYQGLSTATKDTYDALHMQALPPRSSGSGEGRGSLLTCGDVEENPGPHMTEYKPTVRLATRDDVPRAVRTLAAAFADYPATRHTVDPDRHIERVTELQELFLTRVGLDIGKVWVADDGAAVAVWTTPESVEAGAVFAEIGPRMAELSGSRLAAQQQMEGLLAPHRPKEPAWFLATVGVSPDHQGKGLGSAVVLPGVEAAERAGVPAFLETSAPRNLPFYERLGFTVTADVEVPEGPRTWCMTRKPGA
modifications: listed as DNA
notes: CAR construct targeting MPL, AB317 scFv, CD28 costimulatory domain
B3: CD8SP-MPL-VB22Bw4-(vL-vH)-Myc-CD28z-T2A-PAC(031615-B06): CAR construct targeting MPL, VB22Bw4 scFv, CD28 costimulatory domain (protein)
chain: MALPVTALLLPLALLLHAARPDDIVMTQSPLSLPVTPGEPASISCRSSKSLLHSNGNTYLYWFLQKPGQSPQLLIYRMSNLASGVPDRFSGSGSGTDFTLKISRVEAEDVGVYYFMQHIEYPFTFGQGTKLEIKGGGGSGGGGSGGGGSQVQLVQSGPEVKKPGASVKVSCKASGYTFTNSWMNWVRQRPGKGLEWIGRIYPGDGETIYNGKFRVRVTITADESTSTAYMQLSSLRSEDTAVYYCARGYDDYSFAYWGQGTTVTVSSTREQKLISEEDLKIEVMYPPPYLDNEKSNGTIIHVKGKHLCPSPLFPGPSKPFWVLVVVGGVLACYSLLVTVAFIIFWVRSKRSRLLHSDYMNMTPRRPGPTRKHYQPYAPPRDFAAYRSRVKFSRSADAPAYQQGQNQLYNELNLGRREEYDVLDKRRGRDPEMGGKPRRKNPQEGLYNELQKDKMAEAYSEIGMKGERRRGKGHDGLYQGLSTATKDTYDALHMQALPPRSSGSGEGRGSLLTCGDVEENPGPHMTEYKPTVRLATRDDVPRAVRTLAAAFADYPATRHTVDPDRHIERVTELQELFLTRVGLDIGKVWVADDGAAVAVWTTPESVEAGAVFAEIGPRMAELSGSRLAAQQQMEGLLAPHRPKEPAWFLATVGVSPDHQGKGLGSAVVLPGVEAAERAGVPAFLETSAPRNLPFYERLGFTVTADVEVPEGPRTWCMTRKPGA
modifications: listed as DNA
notes: CAR construct targeting MPL, VB22Bw4 scFv, CD28 costimulatory domain
B4: CD8SP-175-(vL-vH)-Myc-CD28z-T2A-PAC(031615-Q04): CAR construct targeting MPL, 175 scFv, CD28 costimulatory domain (protein)
chain: MALPVTALLLPLALLLHAARPDQIVLTQSPAIMSASPGEKVTISCSASSSVSYMYWYQQKPGSSPKPWIYRTSNLASGVPARFSGSGSGTSYSLTISNMEAEDAAAYYCQQYHSYPTTFGGGTKLEVKGGGGSGGGGSGGGGSEVQLVESGGGLVQPKGSLKLSCAASGFSFNTYAMNWVRQAPGKGLEWIAHIRSKSNNFATYYADSVKDRFSISRDASENILFLQMNNLKTEDTAMYYCVRQGGDFPMDYWGQGTSVTVSSTREQKLISEEDLKIEVMYPPPYLDNEKSNGTIIHVKGKHLCPSPLFPGPSKPFWVLVVVGGVLACYSLLVTVAFIIFWVRSKRSRLLHSDYMNMTPRRPGPTRKHYQPYAPPRDFAAYRSRVKFSRSADAPAYQQGQNQLYNELNLGRREEYDVLDKRRGRDPEMGGKPRRKNPQEGLYNELQKDKMAEAYSEIGMKGERRRGKGHDGLYQGLSTATKDTYDALHMQALPPRSSGSGEGRGSLLTCGDVEENPGPHMTEYKPTVRLATRDDVPRAVRTLAAAFADYPATRHTVDPDRHIERVTELQELFLTRVGLDIGKVWVADDGAAVAVWTTPESVEAGAVFAEIGPRMAELSGSRLAAQQQMEGLLAPHRPKEPAWFLATVGVSPDHQGKGLGSAVVLPGVEAAERAGVPAFLETSAPRNLPFYERLGFTVTADVEVPEGPRTWCMTRKPGA
modifications: listed as DNA
notes: CAR construct targeting MPL, 175 scFv, CD28 costimulatory domain
B5: CD8SP-4C3-(vL-vH)-Myc-CD28z-T2A-Pac(031615-WO5): control CAR (4C3 scFv, CD28z) (protein)
chain: MALPVTALLLPLALLLHAARPDIVMTQSPSSLTMSVGQKVTMSCKSSHSLLNSRNQKNYLAWFQQKPGQSPKLLVYFASTRESGVPDRFIGSGSGTDFTLTISNVQAEDLADYFCQQHYTTLPTFGGGTKLEIKGGGGSGGGGSGGGGSQIQLVQSGPDLKKPGETVKISCKASGYTFTNTGMNWVKQAPGKGLKWMGWINTYTGEPTYADDFKGRFTFSLETSASTAYLQINNLKNEDTATYFCTRWGYGSSLYYAMDYWGQGTSVTVSSTREQKLISEEDLKIEVMYPPPYLDNEKSNGTIIHVKGKHLCPSPLFPGPSKPFWVLVVVGGVLACYSLLVTVAFIIFWVRSKRSRLLHSDYMNMTPRRPGPTRKHYQPYAPPRDFAAYRSRVKFSRSADAPAYQQGQNQLYNELNLGRREEYDVLDKRRGRDPEMGGKPRRKNPQEGLYNELQKDKMAEAYSEIGMKGERRRGKGHDGLYQGLSTATKDTYDALHMQALPPRSSGSGEGRGSLLTCGDVEENPGPHMTEYKPTVRLATRDDVPRAVRTLAAAFADYPATRHTVDPDRHIERVTELQELFLTRVGLDIGKVWVADDGAAVAVWTTPESVEAGAVFAEIGPRMAELSGSRLAAQQQMEGLLAPHRPKEPAWFLATVGVSPDHQGKGLGSAVVLPGVEAAERAGVPAFLETSAPRNLPFYERLGFTVTADVEVPEGPRTWCMTRKPGA
modifications: listed as DNA

The molecules below were run against T1, extracellular domain (ECD) of human MPL (Homo sapiens, UniProt P40238) (assay: NLuc assay to detect CAR: binding of MPL-ECD-GGSG-NLuc-AcV5 supernatant to CAR-expressing cells). Conditions: T cells expressing the CAR.
T1 construct: made in house; host or cells: 293FT cells, conditioned medium used unpurified
Source text: A frequent problem in the field of chimeric antigen receptors is lack of a sensitive and specific assay that can detect cells that express chimeric antigen receptors. To detect the expression of CAR targeting CD19 and MPL, we fused the extracellular domains (ECD) of human CD19 and human MPL, including their signal peptides, in frame with nucleotide sequence encoding a Gly-Gly-Ser-Gly linker, NLuc (without a secretory signal) and an AcV5 epitope tag. In the case of CD19 construct, a FLAG tag was inserted between the signal peptide and the beginning of the extracellular domain. The whole cassette was cloned downstream of the human EF1α promoter into the lentiviral vector pLenti-EF1 to make constructs pLenti-EF1-FLAG-CD19-ECD-GGSG-NLuc-AcV5 and pLenti-EF1-MPL-ECD-GGSG-NLuc-AcV5, respectively. The nucleic acid sequences of the insert fragments are provided in SEQ ID NO: 926 and SEQ ID NO: 925, respectively. The protein sequences of the insert fragments are provided in SEQ ID NO: 2671 and SEQ ID NO: 2670, respectively. The constructs were transfected into 293FT cells by calcium phosphate co-precipitation method. Approximately 20 h post-transfection, the cell culture media was replaced with fresh medium. The conditioned media containing the secreted FLAG-CD19-ECD-GGSG-NLuc-AcV5 (also referred to as CD19-GGSG-NLuc-AcV5) and MPL-ECD-GGSG-NLuc-AcV5 (also referred to as MPL-GGSG-NLuc-AcV5) proteins was collected 48-72 h later.
Next day morning, approximately 18 hours post-transfection, cells were collected by pipetting up and down in 1.5 ml tubes. The tubes were spun down at 1500 RPM for 5 minutes. Then the cells were washed once with wash buffer (1% FBS in PBS), followed by incubation with 1001 of indicated secretory forms of GGS NLuc supernatants. The cells were incubated at 4° C. for 1 hour.
After the incubation, cells were washed 5 times with wash buffer (1 ml each wash). Finally the pellet was resuspended in 200 μl wash buffer. Resuspended cells were placed in a 384 well plate in triplicate (25 μl each). Luciferase activity was measured using a BioTek synergy H4 plate reader after addition of NLuc assay buffer (Promega) containing native coelenterazine (25 μl each well) directly to each well (one at a time).
T cells expressing the different MPL CAR constructs were incubated with MPL-GGSG-NLuc-AcV5 and CD19-GGSG-NLuc-AcV5 supernatants and after extensive washes assayed for NLuc activity essentially as described in the preceding example.

Molecule	binding to MPL-GGSG-NLuc AcV5 (NLuc assay)
B1	modest binding
B2	modest binding
B3	strong binding
B4	strong binding
B5	no significant binding
